# Legend:
# Protein sequences, listed by entry. Tags and fused reporters are not part of them.
# UniProt P30542, whole entry: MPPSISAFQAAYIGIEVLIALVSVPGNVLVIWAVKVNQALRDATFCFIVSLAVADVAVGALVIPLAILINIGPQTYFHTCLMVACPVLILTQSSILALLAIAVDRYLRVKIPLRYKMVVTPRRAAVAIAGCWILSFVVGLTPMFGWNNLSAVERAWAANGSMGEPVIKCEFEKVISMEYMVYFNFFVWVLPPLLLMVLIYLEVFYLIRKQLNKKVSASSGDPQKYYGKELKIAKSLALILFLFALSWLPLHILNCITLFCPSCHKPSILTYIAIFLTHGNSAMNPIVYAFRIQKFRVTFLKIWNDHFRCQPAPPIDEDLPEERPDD
# UniProt P0DMS8, whole entry: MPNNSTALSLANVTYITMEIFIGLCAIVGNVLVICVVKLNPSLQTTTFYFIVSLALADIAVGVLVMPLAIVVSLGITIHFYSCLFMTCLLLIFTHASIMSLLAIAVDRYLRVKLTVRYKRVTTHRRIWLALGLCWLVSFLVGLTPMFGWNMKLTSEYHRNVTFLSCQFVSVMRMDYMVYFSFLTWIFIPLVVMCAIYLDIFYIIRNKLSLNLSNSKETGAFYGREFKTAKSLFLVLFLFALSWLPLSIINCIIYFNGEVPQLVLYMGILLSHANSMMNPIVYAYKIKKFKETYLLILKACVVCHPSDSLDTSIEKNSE
# human A1AR = human A1AR (Homo sapiens (Human), UniProt P30542); assay: Binding assay to the human A1AR ([3H]R-PIA); conditions: CHO cells, Table 3
# human A2A AR = human A2A AR (Homo sapiens (Human), UniProt P29274); assay: Binding assay to the human A2A AR ([3H]CGS21680); conditions: [3H]CGS 21680, Table 3
# human A3AR = human A3AR (Homo sapiens (Human), UniProt P0DMS8); assay: Competitive binding assay to the human A3AR ([125I]I-AB-MECA); conditions: CHO cells, Table 3
smiles,measurement,setting,value
Clc1ccc(Nc2nc3ccccc3c3nc(C4CCCC4)[nH]c23)cc1Cl,hA1AR % displ. at 10 μM,human A1AR,15%
same,"hA2AAR, % displ. at 10 μM",human A2A AR,<10%
same,hA3AR % displ. at 10 μM,human A3AR,67%

# — patent US9326978B2, “A3 adenosine receptor allosteric modulators” (The United States of America, Represented by the Secretary, …, priority 2006, dated 2016)
